In PMC3479967, “Drug-Drug Interactions Potential of Icariin and Its Intestinal Metabolites via Inhibition of Intestinal UDP-Glucuronosyltransferases” (Evidence-based Complementary and Alternative Medicine : eCAM, 2012):

How the values were obtained:
UGT2B7 = biological target: T1, UGT2B7 (Homo sapiens, UniProt P16662); experiment: Inhibition of recombinant UGT2B7 activity (4-MU glucuronidation)
T1 sequence (P16662 24-529): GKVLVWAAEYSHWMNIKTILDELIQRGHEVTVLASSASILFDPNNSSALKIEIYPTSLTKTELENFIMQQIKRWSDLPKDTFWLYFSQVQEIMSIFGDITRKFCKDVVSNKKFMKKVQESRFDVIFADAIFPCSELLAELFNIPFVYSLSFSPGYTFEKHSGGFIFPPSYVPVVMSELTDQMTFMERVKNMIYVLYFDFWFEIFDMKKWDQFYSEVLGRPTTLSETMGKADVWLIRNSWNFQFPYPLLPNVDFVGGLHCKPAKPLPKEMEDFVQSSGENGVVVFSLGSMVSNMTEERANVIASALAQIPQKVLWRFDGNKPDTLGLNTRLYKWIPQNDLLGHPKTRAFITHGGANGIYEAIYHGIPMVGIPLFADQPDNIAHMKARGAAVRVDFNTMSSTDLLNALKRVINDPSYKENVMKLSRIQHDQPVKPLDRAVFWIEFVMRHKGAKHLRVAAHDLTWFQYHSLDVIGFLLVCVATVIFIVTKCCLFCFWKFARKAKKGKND
Procedure: (§1) A panel of recombinant human UGT supersomes (UGT1A1, UGT1A3, UGT1A4, UGT1A6, UGT1A7, UGT1A8, UGT1A9, UGT1A10, UGT2B4, UGT2B7, UGT2B15, and UGT2B17) expressed in baculovirus-infected insect cells were purchased from BD Gentest Corp. (Woburn, MA, USA).
(§2) 4-MU, a nonselective substrate of UGTs, was used as probe substrate for all UGTs except UGT1A4. Incubations with each individual enzyme were conducted using conditions previously described. There was a 5 min preincubation step at 37°C before the reaction was started by addition of UDPGA. The incubation mixtures were then centrifuged at 20,500 ×g for 15 min to obtain the supernatant. Aliquots (20 μL) were then analyzed by HPLC. The HPLC system (SHIMADZU, Kyoto, Japan) consisted of an SCL-10A system controller, two LC-10AT pumps, a SIL-10A auto injector, and a SPD-10AVP UV detector. Chromatographic separation was achieved using a Kromasil ODS column (4.6 × 150 mm I.D., 5 μm particle size) at a flow rate of 1 mL/min and UV detection at 316 nm. The mobile phase consisted of 10 mM KH2PO4, pH 2.7 (A) and acetonitrile (B). […]
(§3) Inhibition data from experiments were graphically represented by Dixon plots. K i values were calculated by nonlinear regression using the equations for competitive inhibition (1), noncompetitive inhibition (2), or mixed inhibition (3), [22] […]

UGT1A8 = biological target: T2, UGT1A8 (Homo sapiens, UniProt Q9HAW9); experiment: Inhibition of recombinant UGT1A8 activity (4-MU glucuronidation); details: read-out: IC50 for inhibition of UGT1A8 activity; recombinant human UGT1A8, 750 μM 4-MU, mean ± SD
T2 sequence (Q9HAW9 26-530): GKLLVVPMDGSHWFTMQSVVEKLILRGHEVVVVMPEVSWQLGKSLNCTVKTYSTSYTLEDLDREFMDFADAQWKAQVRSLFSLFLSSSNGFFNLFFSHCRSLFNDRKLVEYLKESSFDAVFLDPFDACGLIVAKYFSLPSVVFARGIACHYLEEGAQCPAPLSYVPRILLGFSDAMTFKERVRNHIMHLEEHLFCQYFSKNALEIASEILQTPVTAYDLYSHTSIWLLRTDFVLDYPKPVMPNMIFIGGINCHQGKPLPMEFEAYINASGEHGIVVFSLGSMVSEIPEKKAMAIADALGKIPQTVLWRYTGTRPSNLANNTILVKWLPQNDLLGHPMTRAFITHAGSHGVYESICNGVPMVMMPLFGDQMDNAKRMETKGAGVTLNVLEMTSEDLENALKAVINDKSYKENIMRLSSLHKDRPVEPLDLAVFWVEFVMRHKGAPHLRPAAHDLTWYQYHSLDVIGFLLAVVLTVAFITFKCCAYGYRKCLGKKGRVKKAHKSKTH
Procedure: as §1, §2, §3

Icariside II
IC50 (UGT2B7; read-out: IC50 for inhibition of UGT2B7 activity, recombinant human UGT2B7, 350 μM 4-MU, mean ± SD): 12.5 ± 0.1 µM
Ki (UGT2B7; read-out: Ki against UGT2B7, recombinant UGT2B7, 4-MU substrate, mean ± standard error): 8.2 ± 1.5 µM
IC50 (UGT1A8): > 100 µM
